Screening results as filed in PubChem.
HCMV UL50-53 inh – inhibitors of HCMV UL50-UL53 interaction, biochemical, HTRF; HCMV UL50-UL53 nuclear egress complex (human cytomegalovirus); normalized percent inhibition; inhibition, % (concentration not given with the values); hit rate 0.15% among 190,000; AID 1918969, 2023; in the data active = inhibition above about 27%, passing the limit was not always enough
GIV Gai3 FP – inhibitors of GIV peptide binding to Galpha-i3, primary screen, biochemical, fluorescence polarization, FITC-GIV GBA peptide, rat Galphai3 | Guanine nucleotide-binding protein G(i) subunit alpha-3 (Rattus norvegicus), P08753 | 90 min; hits give low values; scaled: aluminum fluoride 0%, vehicle 100% | percent of control (FP), % (test concentration not listed) | hit rate 0.42% among 210,000 | AID 1224905, 2016;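 active = replicate mean at 85% of control or lower, very high polarization wells dropped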;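 note: wells of about 15 µL received 100 nL stock; the first replicate is given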
GIV Gai FP conf – inhibitors of GIV peptide binding to Galpha-i3, confirmation, biochemical, fluorescence polarization, FITC-GIV peptide, rat Galphai3 | shares compounds with GIV Gai3 FP | fluorescence polarization, mP at 100 µM | hits give low values | AID 1259350, 2017 | hit rate 38% among 580;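 active = inhibition score of 15 or more, meaning 100 minus mean polarization as percent of control over three replicates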;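 also: lower mP means peptide displaced from Galphai3 so more inhibition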
GIV-Gai AS conf – inhibitors of GIV binding to Galpha-i3, confirmation, orthogonal assay for GIV-Galpha-i inhibitor project, biochemical, AlphaScreen, His-GIV, GST-Galphai3 | AlphaScreen counts at 100 µM | hit rate 39% among 580 | purified proteins, 90 min; hits give low values | shares compounds with GIV Gai3 FP;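 active = inhibition score at or above a set limit, where the score is 100 minus the three-replicate mean percent of control signal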
Numbers stand for hits; n = inactive; x = no result. Shown are actives, neighbours in structure and some others; about 0.43% of the full set was active somewhere.

Chains of the proteins cited; added tags and fusions are not shown.
Guanine nucleotide-binding protein G(i) subunit alpha-3 (Rattus norvegicus), P08753, UniProt P08753, whole entry, looked up: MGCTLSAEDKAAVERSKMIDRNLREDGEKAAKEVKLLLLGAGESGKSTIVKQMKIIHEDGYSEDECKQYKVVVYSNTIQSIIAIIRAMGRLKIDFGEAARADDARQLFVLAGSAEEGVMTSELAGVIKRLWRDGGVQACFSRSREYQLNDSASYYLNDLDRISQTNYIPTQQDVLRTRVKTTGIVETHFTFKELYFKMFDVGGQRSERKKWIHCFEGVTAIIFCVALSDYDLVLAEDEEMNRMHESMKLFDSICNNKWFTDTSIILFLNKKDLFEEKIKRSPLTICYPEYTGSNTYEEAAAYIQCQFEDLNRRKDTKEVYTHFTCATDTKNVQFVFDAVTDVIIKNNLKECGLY

SMILES	HCMV UL50-53 inh	GIV Gai3 FP	GIV Gai FP conf	GIV-Gai AS conf
Cc1ccc(C)c(CN2CCCC2c2c(C)noc2C)c1 (configuration not stated)	x	n	x	x
CCOC(=O)c1c(C)oc2c1c(O)c(N=O)c1ccccc12	n	42	48	n
CCOC(=O)c1c(C)oc2c1c(C=NC(C)c1ccccc1)c(O)c1ccccc12 (configuration not stated)	x	n	x	x
Cc1cc(C)cc(N2C(=O)N(Cc3cc(=O)n4ccccc4n3)c3ccccc3S2(=O)=O)c1	x	n	x	x
O=C1N(Cc2cc(=O)n3ccccc3n2)c2ccccc2S(=O)(=O)N1c1ccc(Cl)cc1	x	85	51	n
CC1CCN(c2nc3ccc(C(=O)NCc4ccccc4Br)cc3s2)CC1	n	n	x	x
CC(=O)Nc1ccc(NC(=O)c2ccco2)cc1	n	n	x	x
O=C(O)c1cc(NC(=O)c2ccc(NC(=O)c3ccco3)cc2)cc(C(=O)O)c1	n	79	64	22001
CN1c2ccccc2N(C)C1c1ccc(O)cc1	68	16	31	16384
CN1C(=O)c2ccccc2N(C)C1c1ccc(F)cc1 (configuration not stated)	n	n	x	x
O=C(Nc1ccc(N2CCOCC2)cc1)Nc1ccc2nc(-c3ccco3)c(-c3ccco3)nc2c1	n	n	x	x
O=C(NCCCO)Nc1ccc2nc(-c3ccco3)c(-c3ccco3)nc2c1	n	81	58	1698
O=S(=O)(c1cccc2nonc12)N1CCC(Cc2ccccc2)CC1	x	n	n	n
O=S(=O)(c1cccc2nsnc12)N1CCC(Cc2ccccc2)CC1	x	n	x	x
CC(=O)NC12CC3CC(C1)CC(C(=O)Nc1ccc(N4CCCCC4)cc1)(C3)C2	n	x	x	x
Cc1ccc2nc(-c3ccc(C)c(NC(=O)c4ccc5c(c4)OCCO5)c3)oc2c1	n	n	x	x
CN1C(C(=O)Nc2ccc(OC(F)(F)F)cc2)=CC(c2ccc3c(c2)OCO3)=NS1(=O)=O	n	55	n	n
CCc1ccc(NC(=O)C2=CC(c3ccc4c(c3)OCO4)=NS(=O)(=O)N2C)cc1	n	n	x	x
N#Cc1c(/N=C/c2ccc(Cl)c(Cl)c2)oc(-c2ccccc2)c1-c1ccccc1	x	73	12	n
N#Cc1c(/N=C/c2ccccc2)oc(-c2ccccc2)c1-c1ccccc1	x	n	x	x
CC(OC(=O)C1COc2ccccc2O1)C(=O)N1CCc2ccccc21 (configuration not stated)	n	x	x	x
CCOC(=O)c1sc2nc(CC(=O)OC)nc(N3CCN(c4ccccc4)CC3)c2c1C	n	n	x	x
CC1(C)CCC2=C(O1)c1ccccc1C(=O)C2=O	n	54	54	n
CC1=C(C)C(=O)c2ccccc2C1=O	n	n	x	x
CN(C(=O)CSc1nnc(-c2ccccc2)o1)c1ccccc1	n	x	x	x
SMILES	HCMV UL50-53 inh	GIV Gai3 FP	GIV Gai FP conf	GIV-Gai AS conf
CC1(C)Cc2ccccc2C2=NNC(=O)C2=N1	n	76	54	n
CC1(C)Cc2ccccc2C(C2=C(O)CCCC2=O)=N1	x	n	x	x
Cc1ccc(C(=O)C(C)C2c3cc(Br)ccc3OC(=O)C2C(=O)c2ccccc2)cc1 (configuration not stated)	x	n	x	x
CC(C)(O)CC1(CO)CCCCC1	n	n	n	n
O=C(Nc1ccc(-c2nc3ccccc3o2)cc1)c1ccc(Br)o1	n	n	x	x
Cc1cc(C)c2oc(-c3cccc(NC(=O)c4ccc(Br)o4)c3)nc2c1	n	n	n	n
O=C(Nc1cc(-c2nc3ccccc3o2)ccc1Cl)c1ccc(Br)o1	n	69	n	n
Cc1cc(C)c2oc(-c3cccc(NC(=O)c4ccco4)c3)nc2c1	n	n	x	x
CCN1C(=O)CC(C(=O)Nc2ccc(Br)cc2)SC1=Nc1ccc(OC)cc1 (configuration not stated)	x	n	x	x
Cc1oc2ncn(CCC(=O)NCCC(C)C)c(=O)c2c1C	n	n	x	x
Cc1cc(N2CCc3ccccc32)n2ncnc2n1	n	n	x	x
c1ccc2c(c1)CCN2c1c2c(nc3ncnn13)CCC2	n	n	n	n
CC1(C)CC(N2C(=O)OC3(CC(C)(C)NC(C)(C)C3)C2(C)O)CC(C)(C)N1 (configuration not stated)	x	n	x	x
CCOC(=O)C1=C(Cn2ncc(Cl)c(Cl)c2=O)NC(=O)NC1C (configuration not stated)	n	x	x	x
